# Antibody variant affinities, Ab-91 heavy chain, assay 2

Antigen: PDVDLGDISGINAS, a 14-residue peptide of the SARS-CoV-2 spike HR2 region.

The variants keep the light chain, the linker and the frameworks of Ab-91 (scFv order VL, a 15-residue (Gly4Ser)3 linker, VH).
VL: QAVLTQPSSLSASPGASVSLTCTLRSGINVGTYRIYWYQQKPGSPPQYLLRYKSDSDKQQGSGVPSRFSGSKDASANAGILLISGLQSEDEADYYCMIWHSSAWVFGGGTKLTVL
VH: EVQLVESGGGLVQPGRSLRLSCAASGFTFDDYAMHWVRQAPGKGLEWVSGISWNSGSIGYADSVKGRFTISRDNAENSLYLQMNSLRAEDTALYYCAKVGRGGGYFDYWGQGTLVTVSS

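The parent was found by panning a naive human phage display library on the peptide. In library AAYL51, one, two or three CDR residues were substituted; doubles and triples were drawn at random. The scFvs were displayed on barcoded MATa yeast, the peptide on MATalpha yeast. The frequency of each diploid, read from paired DNA barcodes, reflects how well the two displayed proteins bind. A regression on co-assayed BCL2-family reference pairs converts the normalised counts of each replicate to an apparent Kd. Mating was done three times.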

Substitutions are numbered in sequence along the VH above, starting at 1 (not Kabat). All variants listed here change Y32 of the VH, counted from its first residue. The Kd shown is the geometric mean over detected replicates; a lower Kd is a better binder. Where no diploid with the target was found in any replicate, the entry reads "no signal": below detection, most likely a poor binder, though not proof of it. As a blank, each scFv also met three strains without target: over library AAYL51, 21% of these pairings were detected, typically at 34 µM and seldom below 1.8 µM.

With Y32T G50E I51C the result was no signal (0 of 3 replicates). Variant Y32F G100T gave 9.9 µM (1 of 3 replicates). Variant Y32N S57Q G59M gave no signal (0 of 3 replicates). Variant D30A D31Q Y32A showed 14 nM (3 of 3 replicates). Variant Y32F S57V showed no signal (0 of 3 replicates). With Y32R D62H K65M the result was no signal (0 of 3 replicates).

Variant Y32H H35K R101C gave 28 µM (1 of 3 replicates). Variant Y32F G59F D62I gave 220 µM (1 of 3 replicates). With T28D Y32A K65F the result was 530 nM (3 of 3 replicates). With Y32T I51T G102S the result was 20 µM (3 of 3 replicates). With Y32K H35L G102F the result was 51 µM (2 of 3 replicates). Variant Y32T A61F showed 4.2 µM (2 of 3 replicates).

With Y32H W53T S55Q the result was no signal (0 of 3 replicates). For F29K Y32E F106H, the assay gave 22 µM (1 of 3 replicates). Variant T28G D30V Y32G gave 52 µM (2 of 3 replicates). For Y32R D62F G100S, the assay gave no signal (0 of 3 replicates). Variant D31F Y32E showed 93 nM (3 of 3 replicates). With D30N Y32G K65I the result was no signal (0 of 3 replicates).

Variant Y32F H35K V99F showed 100 µM (3 of 3 replicates). Variant Y32F G59L Y105W showed 110 µM (2 of 3 replicates). For Y32H S55M Y60M, the assay gave 58 µM (1 of 3 replicates). For Y32Q Y60F D107Y, the assay gave no signal (0 of 3 replicates). With T28I Y32E the result was no signal (0 of 3 replicates). Variant T28Q Y32F Y60G showed 2.7 µM (1 of 3 replicates).

With Y32G G102R the result was 410 µM (2 of 3 replicates). With Y32W A33T D62C the result was no signal (0 of 3 replicates). For D30K Y32G G59S, the assay gave 14 µM (1 of 3 replicates). Variant Y32H A61D gave no signal (0 of 3 replicates). Variant Y32V M34D S57F showed 9.7 µM (1 of 3 replicates). Variant Y32W G56S Y105M gave 1.9 mM (2 of 3 replicates).

Variant Y32G gave no signal (0 of 3 replicates). With Y32K the result was no signal (0 of 3 replicates). Variant Y32S D62Y G103M showed no signal (0 of 3 replicates). For F27S Y32L Y105D, the assay gave 180 µM (3 of 3 replicates). Variant Y32D G50E I58H showed no signal (0 of 3 replicates). Variant D31H Y32A G104C showed 34 nM (3 of 3 replicates).

With Y32I I58T the result was 5.5 µM (2 of 3 replicates).

Data: MIT Lincoln Laboratory AlphaSeq set, Engelhart et al. 2022, doi:10.1038/s41597-022-01779-4, as distributed in FLAb.